{"source": "paper PMC13035853", "about": "“Mechanism of beta-arrestin 1 mediated Src activation via Src SH3 domain revealed by cryo-electron microscopy” (Nature Communications, 2026)", "target": "three-domain Src (SH3-SH2-SH1, residues 83-533), C-tail unphosphorylated (chicken, UniProt P00523, in part)", "assay": "cell-based or functional assay", "data": [{"binder": "β-arrestin 1, wild type (residues 2-418) (natural protein, rat, UniProt P29066 2-418, looked up) GDKGTRVFKKASPNGKLTVYLGKRDFVDHIDLVDPVDGVVLVDPEYLKERRVYVTLTCAFRYGREDLDVLGLTFRKDLFVANVQSFPPAPEDKKPLTRLQERLIKKLGEHAYPFTFEIPPNLPCSVTLQPGPEDTGKACGVDYEVKAFCAENLEEKIHKRNSVRLVIRKVQYAPERPGPQPTAETTRQFLMSDKPLHLEASLDKEIYYHGEPISVNVHVTNNTNKTVKKIKISVRQYADICLFNTAQYKCPVAMEEADDTVAPSSTFCKVYTLTPFLANNREKRGLALDGKLKHEDTNLASSTLLREGANREILGIIVSYKVKVKLVVSRGGLLGDLASSDVAVELPFTLMHPKPKEEPPHREVPESETPVDTNLIELDTNDDDIVFEDFARQRLKGMKDDKDEEDDGTGSPHLNNR", "values": [{"measurement": "initial velocity (V0) of optimal Src peptide phosphorylation by Src (20 nM) with βarr1 (100 nM) activated by V2Rpp and Fab30, against Src alone", "result": "~2", "unit": "fold"}]}]}
